Measurements: patent US20040259866A1, “Calcium channel blockers comprising two benzhydril moieties” (priority 1998, published 2004)
Read-outs that look alike come from different tables or passages of the source.

The chains behind the UniProt entries cited, without tags or fusion partners.
UniProt O43497, whole entry: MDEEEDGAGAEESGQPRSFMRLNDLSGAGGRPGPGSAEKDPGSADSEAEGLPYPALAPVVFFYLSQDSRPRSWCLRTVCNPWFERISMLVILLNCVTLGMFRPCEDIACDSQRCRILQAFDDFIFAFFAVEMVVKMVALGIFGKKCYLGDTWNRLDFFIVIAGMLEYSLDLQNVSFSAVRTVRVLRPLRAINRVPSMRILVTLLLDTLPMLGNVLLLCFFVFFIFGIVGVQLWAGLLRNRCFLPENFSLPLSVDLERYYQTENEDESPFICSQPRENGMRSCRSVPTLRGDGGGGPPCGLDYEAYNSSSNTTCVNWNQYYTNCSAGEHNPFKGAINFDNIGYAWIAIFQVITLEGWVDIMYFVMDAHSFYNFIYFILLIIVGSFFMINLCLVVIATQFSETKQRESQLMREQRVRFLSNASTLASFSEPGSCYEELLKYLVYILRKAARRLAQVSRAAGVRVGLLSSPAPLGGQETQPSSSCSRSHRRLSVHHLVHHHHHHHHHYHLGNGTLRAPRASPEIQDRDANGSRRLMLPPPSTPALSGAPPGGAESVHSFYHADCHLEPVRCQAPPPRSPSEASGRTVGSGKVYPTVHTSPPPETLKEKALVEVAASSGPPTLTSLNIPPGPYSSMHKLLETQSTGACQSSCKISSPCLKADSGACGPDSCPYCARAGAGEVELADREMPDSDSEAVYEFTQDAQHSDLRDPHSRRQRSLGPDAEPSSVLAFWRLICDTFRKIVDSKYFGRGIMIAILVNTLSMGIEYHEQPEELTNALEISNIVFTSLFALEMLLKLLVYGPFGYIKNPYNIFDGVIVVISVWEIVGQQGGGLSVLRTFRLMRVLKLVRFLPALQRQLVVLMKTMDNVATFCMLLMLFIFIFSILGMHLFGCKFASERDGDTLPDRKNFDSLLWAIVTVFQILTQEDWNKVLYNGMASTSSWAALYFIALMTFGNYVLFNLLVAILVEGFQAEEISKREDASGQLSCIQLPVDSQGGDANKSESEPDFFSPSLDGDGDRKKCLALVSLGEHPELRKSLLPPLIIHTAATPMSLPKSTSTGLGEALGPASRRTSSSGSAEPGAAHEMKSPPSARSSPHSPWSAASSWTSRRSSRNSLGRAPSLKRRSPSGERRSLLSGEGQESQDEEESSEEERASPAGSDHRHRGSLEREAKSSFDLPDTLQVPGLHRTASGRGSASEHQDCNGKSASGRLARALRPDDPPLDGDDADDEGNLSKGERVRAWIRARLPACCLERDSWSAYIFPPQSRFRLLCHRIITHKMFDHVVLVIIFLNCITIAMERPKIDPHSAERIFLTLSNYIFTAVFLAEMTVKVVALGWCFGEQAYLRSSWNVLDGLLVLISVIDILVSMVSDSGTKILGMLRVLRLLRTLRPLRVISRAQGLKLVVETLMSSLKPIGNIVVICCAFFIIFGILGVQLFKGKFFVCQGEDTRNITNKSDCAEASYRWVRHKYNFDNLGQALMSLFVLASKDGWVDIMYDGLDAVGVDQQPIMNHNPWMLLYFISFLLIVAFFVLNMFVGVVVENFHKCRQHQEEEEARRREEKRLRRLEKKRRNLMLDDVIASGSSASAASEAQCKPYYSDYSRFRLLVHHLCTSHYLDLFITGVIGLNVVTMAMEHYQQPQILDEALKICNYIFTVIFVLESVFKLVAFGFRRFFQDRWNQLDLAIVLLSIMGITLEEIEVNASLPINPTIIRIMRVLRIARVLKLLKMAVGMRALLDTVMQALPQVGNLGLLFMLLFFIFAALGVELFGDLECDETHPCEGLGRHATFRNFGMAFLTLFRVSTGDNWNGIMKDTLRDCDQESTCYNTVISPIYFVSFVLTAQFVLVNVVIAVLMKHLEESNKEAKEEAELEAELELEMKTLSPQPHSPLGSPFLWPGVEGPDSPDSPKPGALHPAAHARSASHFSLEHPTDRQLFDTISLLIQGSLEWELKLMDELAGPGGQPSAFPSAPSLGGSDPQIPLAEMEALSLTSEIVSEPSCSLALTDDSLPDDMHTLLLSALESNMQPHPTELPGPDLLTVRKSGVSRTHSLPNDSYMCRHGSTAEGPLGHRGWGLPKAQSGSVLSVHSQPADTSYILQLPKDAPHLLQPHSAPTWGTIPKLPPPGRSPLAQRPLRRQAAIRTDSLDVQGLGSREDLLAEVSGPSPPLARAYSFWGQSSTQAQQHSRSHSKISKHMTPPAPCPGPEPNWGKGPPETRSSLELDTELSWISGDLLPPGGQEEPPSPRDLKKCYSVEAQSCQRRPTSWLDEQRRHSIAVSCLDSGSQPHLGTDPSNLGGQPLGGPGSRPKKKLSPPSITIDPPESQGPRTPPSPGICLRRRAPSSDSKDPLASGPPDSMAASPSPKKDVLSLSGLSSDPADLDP
UniProt Q02294, whole entry: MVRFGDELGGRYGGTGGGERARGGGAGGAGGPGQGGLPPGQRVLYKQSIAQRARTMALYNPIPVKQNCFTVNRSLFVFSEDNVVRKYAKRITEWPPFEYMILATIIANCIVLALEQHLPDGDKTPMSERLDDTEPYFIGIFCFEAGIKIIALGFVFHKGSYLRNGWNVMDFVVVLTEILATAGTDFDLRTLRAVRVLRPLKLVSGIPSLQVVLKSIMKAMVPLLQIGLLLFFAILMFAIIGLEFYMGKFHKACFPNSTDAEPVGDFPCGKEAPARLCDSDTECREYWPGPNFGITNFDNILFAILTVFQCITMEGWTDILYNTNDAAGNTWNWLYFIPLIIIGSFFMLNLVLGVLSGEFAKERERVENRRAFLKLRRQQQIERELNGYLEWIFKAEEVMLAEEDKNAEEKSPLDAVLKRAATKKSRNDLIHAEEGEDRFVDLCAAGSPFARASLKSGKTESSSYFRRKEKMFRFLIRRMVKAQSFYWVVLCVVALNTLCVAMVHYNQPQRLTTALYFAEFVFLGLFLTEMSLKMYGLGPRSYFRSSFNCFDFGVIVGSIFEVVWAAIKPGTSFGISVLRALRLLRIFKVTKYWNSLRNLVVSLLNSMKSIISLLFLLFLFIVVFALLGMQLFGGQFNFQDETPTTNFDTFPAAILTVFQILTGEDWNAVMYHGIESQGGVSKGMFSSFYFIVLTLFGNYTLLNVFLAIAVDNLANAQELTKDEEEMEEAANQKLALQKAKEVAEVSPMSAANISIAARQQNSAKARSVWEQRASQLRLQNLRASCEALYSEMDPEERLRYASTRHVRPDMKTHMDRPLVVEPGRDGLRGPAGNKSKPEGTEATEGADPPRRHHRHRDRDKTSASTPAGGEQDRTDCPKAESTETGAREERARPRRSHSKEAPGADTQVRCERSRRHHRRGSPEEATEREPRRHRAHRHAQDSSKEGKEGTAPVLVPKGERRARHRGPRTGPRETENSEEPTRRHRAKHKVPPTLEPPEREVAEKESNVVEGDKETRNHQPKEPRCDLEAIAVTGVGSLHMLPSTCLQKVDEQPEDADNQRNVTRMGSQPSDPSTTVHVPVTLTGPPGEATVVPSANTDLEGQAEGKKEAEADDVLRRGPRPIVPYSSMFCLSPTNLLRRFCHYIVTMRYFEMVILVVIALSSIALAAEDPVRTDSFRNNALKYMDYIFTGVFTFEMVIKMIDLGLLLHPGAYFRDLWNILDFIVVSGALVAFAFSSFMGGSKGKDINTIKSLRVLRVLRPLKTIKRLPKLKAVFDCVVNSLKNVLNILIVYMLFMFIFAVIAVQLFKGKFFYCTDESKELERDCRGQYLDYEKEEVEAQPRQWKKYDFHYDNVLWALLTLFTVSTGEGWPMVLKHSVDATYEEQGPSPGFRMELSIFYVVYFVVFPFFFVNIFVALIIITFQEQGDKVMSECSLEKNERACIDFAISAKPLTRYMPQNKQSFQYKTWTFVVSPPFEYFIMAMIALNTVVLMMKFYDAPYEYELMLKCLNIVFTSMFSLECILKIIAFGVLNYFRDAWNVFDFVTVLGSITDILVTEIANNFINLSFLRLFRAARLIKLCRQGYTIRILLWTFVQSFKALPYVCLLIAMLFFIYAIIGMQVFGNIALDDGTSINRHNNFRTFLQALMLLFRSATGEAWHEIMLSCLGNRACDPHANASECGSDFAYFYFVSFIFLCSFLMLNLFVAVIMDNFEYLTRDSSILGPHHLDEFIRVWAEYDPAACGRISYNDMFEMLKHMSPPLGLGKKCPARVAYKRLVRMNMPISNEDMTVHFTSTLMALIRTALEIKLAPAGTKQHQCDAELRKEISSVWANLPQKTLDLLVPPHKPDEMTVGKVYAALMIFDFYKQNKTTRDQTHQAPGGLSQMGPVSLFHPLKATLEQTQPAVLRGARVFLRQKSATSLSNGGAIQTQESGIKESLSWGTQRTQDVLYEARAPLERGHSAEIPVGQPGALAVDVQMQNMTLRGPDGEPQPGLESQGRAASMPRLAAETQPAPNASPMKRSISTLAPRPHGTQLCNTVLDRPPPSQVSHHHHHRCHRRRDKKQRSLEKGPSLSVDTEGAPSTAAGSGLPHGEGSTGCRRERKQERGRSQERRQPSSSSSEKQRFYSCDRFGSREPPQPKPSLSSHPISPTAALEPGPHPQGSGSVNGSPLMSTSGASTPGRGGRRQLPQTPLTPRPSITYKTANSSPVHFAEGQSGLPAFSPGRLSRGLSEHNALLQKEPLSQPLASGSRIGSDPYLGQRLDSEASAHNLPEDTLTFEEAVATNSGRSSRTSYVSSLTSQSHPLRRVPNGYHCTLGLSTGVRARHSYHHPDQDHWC

What was measured:
[1] = molecular target: human α1G subunits (T-type channels) (Homo sapiens, UniProt O43497); assay: Block of α1G T-type channels, patch clamp in HEK cell lines (Example 8)
[2] = molecular target: rat α1B+α2b+β1b channels (N-type channels) (Rattus norvegicus, UniProt Q02294); assay: Block of α1B N-type channels, whole cell patch recordings (Example 6); details: HEK 293, 5 mM barium as charge carrier

IC50 ([1]; read-out: Block of α1G T-type Channels IC50, 80 mV, 80 mV (inactivation protocol)): 0.456 µM
IC50 ([1]; read-out: Block of α1G T-type Channels IC50, 100 mV, 100 mV (non-inactivating protocol)): 2.6 µM
IC50 ([2]; read-out: Block of α1B N-type Channels IC50, 0.067 Hz, 0.067 Hz): 0.36 µM
IC50 ([2]; read-out: Block of α1B N-type Channels IC50, 0.2 Hz, 0.2 Hz): 0.31 µM
SMILES: NC(=O)C1CN(C(c2ccccc2)c2ccccc2)CCN1C(=O)CC(c1ccccc1)c1ccccc1 (stereo not shown)
